Results on 1 substance are retold here after patent publication US12644087B2, “Methods to generate polymer scaffolds having a gradient of crosslinking density” (The University of North Carolina at Chapel Hill, priority 2016, dated 2026).

Data set [1] has as its system primary murine colonic epithelial cells. In words: Basal-to-apical and apical-to-basal transport across primary murine colonic epithelial cell monolayer on crosslinked collagen meshwork. Conditions: day 5 of cell culture, TEER >2,000 Ω·cm^2. Type of data set: in vitro ADME.
In data set [2] the test system is primary human small intestinal epithelial cells.

As for rhodamine 123, the “permeability basal-to-apical relative to apical-to-basal” value in data set [1] is reported as approximately 7 fold. For the same substance, in data set [2], the “permeability of rhodamine 123 (basal-to-apical transport)” value is reported as 37.4±1.3 ×10^−8 cm·s^−1 and the “permeability of rhodamine 123 relative to Lucifer yellow” value is on record as 15 times.
